Literature values, collected in patent US20170115265A1, “Use of Visibly Detectable Compounds as Performance Reference Compounds in Passive Sampling Devices” (Geosyntec Consultants, Inc., priority 2015, published 2017).

Conditions: drugs, reported by Scheytt et al. 2005; cited from earlier work

NC(=O)N1c2ccccc2C=Cc2ccccc21 [Carbamazepine]
Log KOW value: 1.51
